Measured values published in PubChem BioAssay AID2300 (The Scripps Research Institute Molecular Screening Center, 2010).
The entries are a selection whose mix differs from that of the whole data set. Some tests of the compounds listed are not included; inactive here does not mean inactive elsewhere. Activity calls are given as the source filed them.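 Rule for the calls: active = percent inhibition above the cutoff of mean plus 3 SD of all tested compounds, set per screening campaign (cut at about 20% in these data); inactive = the rest.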

By UniProt entry, the sequences of proteins in these tests, tags left out.
UniProt Q9Y5X4, whole entry: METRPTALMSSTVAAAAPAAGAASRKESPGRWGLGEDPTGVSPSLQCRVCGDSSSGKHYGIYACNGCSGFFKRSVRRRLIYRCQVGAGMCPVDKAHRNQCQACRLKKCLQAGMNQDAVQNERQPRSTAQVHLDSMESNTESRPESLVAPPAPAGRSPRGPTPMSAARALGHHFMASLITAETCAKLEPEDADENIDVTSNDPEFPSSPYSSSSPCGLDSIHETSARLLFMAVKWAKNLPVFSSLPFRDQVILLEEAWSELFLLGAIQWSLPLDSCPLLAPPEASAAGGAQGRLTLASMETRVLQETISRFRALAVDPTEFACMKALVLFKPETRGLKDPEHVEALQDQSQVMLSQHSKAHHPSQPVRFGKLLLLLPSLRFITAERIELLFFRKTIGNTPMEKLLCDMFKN

Biological target: Photoreceptor-specific nuclear receptor (Homo sapiens) (UniProt Q9Y5X4)
Assay: inhibitors of NR2E3-RetCOR corepressor binding, primary screen, NR2E3 agonist project, biochemical, TR-FRET, GST-NR2E3, biotin-RetCOR (AID 2300);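 note: 0% = DMSO wells and 100% = biotin wells as full block of FRET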
Conditions: 1536-well, at 4.78 µM, active compounds read high
Summary of the method: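 system = GST-tagged NR2E3 plus biotinylated RetCOR corepressor | input = 1.35 nM GST-NR2E3 | also added = 7 nM biotin-RetCOR | schedule = 5 h incubation at 4 °C | measured by = TR-FRET with europium anti-GST and streptavidin-D2, 340 nm excitation | read-out = percent loss of FRET ratio relative to control wells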

Row | SMILES | inhibition of corepressor binding
1 | Cc1ccc(C(=O)NCC2(N3CCCCC3)CCCCC2)cc1 | inactive: 6.45%
2 | CC(C)N1C(=O)CC2(CCN(CCOC(=O)C(O)(c3ccccc3)c3ccccc3)CC2)C1=O | inactive: -1.94%
3 | CCN(CC)CC(C)C(C)OC(=O)C(O)(c1ccccc1)c1ccccc1 (centres undefined) | inactive: 1.31%
4 | COc1cc(SC)ccc1C(=O)NCC1(N(C)C)CCCCC1 | inactive: -2.36%
5 | CN1[C@@H]2CC[C@H]1CC(OC(=O)C(O)(c1ccccc1)c1ccccc1)C2 (some centres undefined) | inactive: 3.17%
6 | O=C(NCC1(N2CCCCC2)CCCCC1)c1cc([N+](=O)[O-])ccc1Cl | inactive: -0.38%
7 | Cc1cc(C(=O)NCC2(N3CCCCC3)CCCCC2)ccc1[N+](=O)[O-] | inactive: -1.35%
8 | CCN1CCCC(OC(=O)C2(O)c3ccccc3C=Cc3ccccc32)C1 (centres undefined) | inactive: 0.11%
9 | O=C(NCC1(N2CCCCC2)CCCCC1)c1cccc(Br)c1 | inactive: 0.42%
10 | COc1ccc(C(=O)NCC2(N(C)C)CCCCC2)cc1 | inactive: -0.73%
11 | C=CCN1CCN(CCOC(=O)C(O)(c2ccccc2)c2ccccc2)CC1 | inactive: -1.98%
12 | O=C(NCC1(N2CCCCC2)CCCCC1)c1cc(F)c(F)cc1Cl | inactive: 6.09%
13 | Cc1ccccc1C(=O)NCC1(N2CCCCC2)CCCCC1 | inactive: -0.61%
14 | CN(C)C1CCCC1OC(=O)C(O)(c1ccccc1)c1ccccc1 (centres undefined) | inactive: 0.93%
15 | CN(C)c1ccc(C(=O)NCC2(N(C)C)CCCCC2)cc1 | inactive: -1.18%
16 | O=C(NCC1(N2CCCCC2)CCCCC1)c1cccc(Cl)c1 | inactive: 1.86%
17 | COc1cccc(C(=O)NCC2(N3CCCCC3)CCCCC2)c1 | inactive: -2.74%
18 | COc1ccc(Cl)cc1C(=O)NCC1(N(C)C)CCCCC1 | inactive: -2.89%
19 | COc1cc(C(=O)NCC2(N(C)C)CCCCC2)c([N+](=O)[O-])cc1OC | inactive: 2.53%
20 | CN(C)C1(CNC(=O)c2ccc(Br)cc2)CCCCC1 | inactive: -4.06%
21 | CN(C)c1cccc(C(=O)NCC2(N(C)C)CCCCC2)c1 | inactive: 3.41%
22 | CC(C)Oc1ccc(C(=O)NCC2(N(C)C)CCCCC2)cc1 | inactive: 2.07%
23 | COc1ccc(Br)c(C(=O)NCC2(N3CCCCC3)CCCCC2)c1 | inactive: -1.34%
24 | O=C(OC1CN2CCC1CC2)C(CO)(c1ccccc1)c1ccccc1 (centres undefined) | inactive: -0.56%
